Consider 3 compounds from patent publication US10301261B2, “Substituted indoles as modulators of ROR-gamma” (Vitae Pharmaceuticals, LLC, priority 2015, dated 2019).

Amino acid sequences for entries named in this document (tags omitted). Residues count along the entry.
UniProt P51449, 269-508: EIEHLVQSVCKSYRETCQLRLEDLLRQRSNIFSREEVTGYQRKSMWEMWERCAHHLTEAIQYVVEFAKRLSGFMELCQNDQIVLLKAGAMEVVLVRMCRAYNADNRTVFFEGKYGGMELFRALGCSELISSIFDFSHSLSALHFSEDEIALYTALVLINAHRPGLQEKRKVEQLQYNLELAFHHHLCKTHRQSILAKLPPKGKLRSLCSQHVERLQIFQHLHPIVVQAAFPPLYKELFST

The assay addresses recombinant RORγ Ligand Binding Domain (LBD) protein (Homo sapiens (Human), UniProt P51449). Nature of the assay: Radio-Ligand RORγ Binding Assay (Assay 1). The conditions noted are these: radio-ligand 25-hydroxy [26,27-3H]-cholesterol competition. On the procedure:
Radio-Ligand RORγ Binding Assay (Assay 1)
Compounds described herein were tested for ability to bind to RORγ in a cell-free competition assay with commercially available radio-ligand (RL), 25-hydroxy [26,27-^3H]-cholesterol (PerkinElmer, Cat. # NET674250UC), for a ligand binding site on a recombinant RORγ Ligand Binding Domain (LBD) protein expressed as a 6×His-Glutathione-S-Transferase (GST) fusion. […] The plate was shaken at 700 rpm for 20 min and incubated for 10 min at rt, after which 40 μL of poly-Lys YSi SPA beads (PerkinElmer, Cat. # RPNQ0010) were added to achieve 50 μg of the beads per well. The plate was incubated on an orbital shaker for 20 min and then for 10 min without agitation at rt. SPA signal for tritium beta radiation was registered on PerkinElmer Microbeta plate reader. […] The percent inhibition vs. concentration data were fit into a four-parameter model, and IC50 values were calculated from the fit as the concentrations corresponding to the inflection points on the dose-response curves. […]
Take `CCS(=O)(=O)c1ccc(CNC(=O)c2ccc3c(c2)nc(C(O)[C@H]2CC[C@H](C(F)(F)F)CC2)n3C2CC2)cc1` (single isomer, unassigned) [BE-63.1, 1-cyclopropyl-N-(4-(ethylsulfonyl)benzyl)-2-(hydroxy(trans-4-(trifluoromethyl)cyclohexyl)methyl)-1H-benzo[d]imidazole-5-carboxamide]: the inhibition constant (Ki) – broadly, a dissociation constant, usually derived from enzyme kinetics or from competition with a known ligand – is more than 1000 nM.

For the compound `CCS(=O)(=O)c1ccc([C@H](CO)NC(=O)c2ccc3c(c2)nc(C(=O)N2CCC(C(F)(F)F)CC2)n3C2CC2)cc1` [BE-62, (R)-1-cyclopropyl-N-(1-(4-(ethylsulfonyl)phenyl)-2-hydroxyethyl)-2-(4-(trifluoromethyl)piperidine-1-carbonyl)-1H-benzo[d]imidazole-5-carboxamide], the Ki was in the range of 100 to 1000 nM.

With `CCS(=O)(=O)c1ccc(CNC(=O)c2ccc3c(c2)nc(C(O)[C@H]2CC[C@H](C(F)(F)F)CC2)n3C2CC2)cc1` (single isomer, unassigned) [BE-63.2, 1-cyclopropyl-N-(4-(ethylsulfonyl)benzyl)-2-(hydroxy(trans-4-(trifluoromethyl)cyclohexyl)methyl)-1H-benzo[d]imidazole-5-carboxamide], the inhibition constant (Ki) is 100 to 1000 nM.
